Experimental data as given in US6171786A, “Methods for preventing multidrug resistance in cancer cells” (priority 1996, dated 2001).

Test system: MDR1 expression (P-glycoprotein)
Assay: Induction of MDR1 expression by cytotoxic drugs (dye efflux, UIC2, cDNA-PCR)
Type: cell-based, human

## O=C(O)CCCc1ccc(N(CCCl)CCCl)cc1 [chlorambucil]
K562 subpopulation, treated 3-5 days then drug-free
  maintenance of MDR1 expression after removal of drug: maintained for a least several weeks
Human leukemia and solid-tumor derived cell lines, short-term exposure
  MDR1 induction: MDR1 induction, both at the mRNA and at the protein levels, was observed
